Patent US7335484B2, “Retinoid metabolizing protein” (Queen's University at Kingston, priority 1996, dated 2008)

System: MCF10A and MCF7 cell lines
Assay: RA metabolites in MCF7 and MCF10A cell lines exposed to RA

CC1=C(/C=C/C(C)=C/C=C/C(C)=C/C(=O)O)C(C)(C)CCC1 [RA, all-trans retinoic acid]
total aqueous soluble metabolites, exposed to RA vs control (MCF7 cells): much greater | lipid soluble metabolites, exposed to RA vs control (MCF10A cell line): little difference | total aqueous soluble metabolites, induced vs control (MCF10A cells): about the same
